The source of these data is ChEMBL document CHEMBL5726786, “Substituted prolines/piperidines as orexin receptor antagonists” (2018).

Sequences of proteins named here, by UniProt entry; tags and fusion partners are left off.
UniProt O43614, whole entry: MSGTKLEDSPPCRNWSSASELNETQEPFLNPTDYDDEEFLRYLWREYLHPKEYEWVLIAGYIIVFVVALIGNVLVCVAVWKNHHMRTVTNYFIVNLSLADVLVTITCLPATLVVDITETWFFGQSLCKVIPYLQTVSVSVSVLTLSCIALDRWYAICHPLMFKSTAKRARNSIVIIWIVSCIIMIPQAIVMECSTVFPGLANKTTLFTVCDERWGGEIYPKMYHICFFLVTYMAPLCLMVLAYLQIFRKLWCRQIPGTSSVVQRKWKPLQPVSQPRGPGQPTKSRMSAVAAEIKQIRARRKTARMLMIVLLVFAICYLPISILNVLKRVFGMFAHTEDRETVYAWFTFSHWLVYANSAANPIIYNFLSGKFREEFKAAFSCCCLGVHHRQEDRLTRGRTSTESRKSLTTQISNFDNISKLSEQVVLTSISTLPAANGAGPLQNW

For the test, the target named is Orexin receptor type 2 (Homo sapiens, UniProt O43614). In words: Cell-based Functional Assay: Measurement of [Ca2+]i using a FLIPR: CHO-OX1 or CHO-OX2 cells are seeded into black-walled clear-base 384-well plates (Costar) at a density of 20,000 cells per well in F12-K medium supplemented with 10% FBS and selection antibiotic (500 ug/ml G418 or 15 ug/ml Blasticidin) and cultured overnight. The cells are incubated with equal volume of calcium4 loading buffer ….
What is called IC50 is the concentration that gives 50% inhibition. Turning to `Cc1ccc(-n2nccn2)c(C(=O)N2CCC[C@@H](C)[C@H]2CNc2ncc3ccccc3n2)c1`, the concentration for half-maximal inhibition (IC50) turned out to be 2000 nM.
Turning to `Cc1nc(C(=O)N2C[C@H]3CCC[C@H]3C2CNc2ncc(C(F)(F)F)cn2)c(-c2ccc(F)cc2)s1` (mixture of isomers), the concentration for half-maximal inhibition (IC50) turned out to be 5000 nM.
Next, `Cc1nc(C(=O)N2CCC[C@H](C)[C@H]2CNc2nc3ccccc3o2)c(-c2ccc(F)cc2)s1` (racemic): 253 nM.
Regarding `Cc1ccc(-n2nccn2)c(C(=O)N2CCC[C@@H](C)[C@H]2CNc2ccc(C(F)(F)F)cn2)c1` (racemic), the half-inhibitory concentration (IC50) was found to be 2300 nM.
Then `C[C@@H]1CCCN(C(=O)c2ccccc2-n2nccn2)[C@@H]1CNc1ccc(C(F)(F)F)cn1` (racemic), with 500 nM; and `Cc1nc(C(=O)N2CCC[C@@H](C(F)(F)F)[C@H]2CNc2nc3ccccc3o2)c(-c2ccccc2)s1` (racemic), with 220 nM; and `Cc1nc(C(=O)N2CCC[C@@H](C)[C@H]2CNc2nc3ccccc3o2)c(-c2ccc(F)cc2)s1` (racemic), with 340 nM.
Next, `Cc1cccc(NC[C@@H]2[C@H](C)CCCN2C(=O)c2nc(C)sc2-c2ccc(F)cc2)n1` (racemic): 1400 nM.
